AlphaSeq binding of Ab-91 heavy chain variants to a spike HR2 peptide

Values reported by Engelhart et al. 2022, doi:10.1038/s41597-022-01779-4 (FLAb copy).

Target peptide (SARS-CoV-2 spike, HR2 region): PDVDLGDISGINAS

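Phage display of a naive human antibody library on the peptide gave the parent. Variants in AAYL51 differ from the parent at up to three CDR positions; double and triple changes were sampled at random. The assay is AlphaSeq: two haploid yeast populations carry antibody and antigen on their surface. After mating in shaken culture at 30 °C for 16 h, diploids were selected and their barcode pairs sequenced. The ratio of observed to expected reads was calibrated, replicate by replicate, on BCL2-family standards whose Kd was known from biolayer interferometry. Mating was done three times.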

The variants keep the light chain, the linker and the frameworks of Ab-91 (scFv order VL, the linker GGGGSGGGGSGGGGS, VH).
VL: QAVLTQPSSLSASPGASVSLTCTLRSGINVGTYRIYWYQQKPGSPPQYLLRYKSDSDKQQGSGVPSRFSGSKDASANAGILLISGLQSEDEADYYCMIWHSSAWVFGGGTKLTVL
VH: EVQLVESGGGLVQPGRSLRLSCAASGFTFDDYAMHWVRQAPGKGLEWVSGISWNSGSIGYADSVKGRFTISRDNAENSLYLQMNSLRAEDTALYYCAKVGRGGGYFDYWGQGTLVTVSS

Substitutions are numbered in sequence along the VH above, starting at 1 (not Kabat). All variants listed here change S63 of the VH, counted from its first residue. Affinities are written as log10 Kd with Kd in nM; a lower number is a better binder. A mean of the replicates is given; it leaves out those without a signal. "nd" marks a missing value. The strain was present, yet no cells mated with the target were sequenced in that replicate, which points to weak or no binding. Order: sorted from the lowest average up, undetected variants last.

The variant S63Y G100S Y105H gave 1.18, 1.21, 0.91 (mean 1.10). The variant I58D S63G Y108I gave 1.56, 1.36, 1.23 (mean 1.38). For I58C S63V, the assay gave 2.58, 2.68, 2.56 (mean 2.61). For S63W G102H, the assay gave nd, nd, 3.25. With F27A I51T S63M the result was nd, 3.41, nd. The variant D62K S63G Y108S showed nd, 3.44, nd. For M34T H35R S63F, the assay gave nd, 3.62, 3.51 (mean 3.57).

For S55K S63N Y105D, the assay gave 4.33, 3.01, 3.59 (mean 3.64). The variant Y60D S63C K65E gave 3.84, nd, nd. For G26R S63Y, the assay gave 3.96, nd, nd. The variant S63Q V99T G103E showed 4.01, 3.92, nd (mean 3.96). For D30L S63T G104P, the assay gave nd, nd, 3.99. The variant S63Q G100Y R101V gave 5.08, 4.41, 3.50 (mean 4.33). With W53H S63V G103F the result was 4.73, 4.23, 4.09 (mean 4.35).

With S52E S63I G100Y the result was 4.53, nd, nd. With S52V S57L S63E the result was 4.65, nd, nd. For S63I K65G Y105M, the assay gave 4.08, nd, 5.31 (mean 4.69). The variant G50L S63N R101S gave 4.76, nd, nd. For Y60G S63C Y105L, the assay gave 4.81, nd, nd. The variant G50M S63E D107Y showed nd, nd, 4.83. For G56L S63L G100K, the assay gave 5.12, 4.41, 4.96 (mean 4.83).

With F29E S52A S63Q the result was 4.84, nd, nd. For S55W G59R S63M, the assay gave 4.51, 5.60, 4.73 (mean 4.95). For F29T H35C S63Y, the assay gave 5.23, nd, nd. The variant S52W S63I G102F showed 4.56, 5.53, 5.84 (mean 5.31). The variant W53P G59N S63M showed nd, 5.97, 4.71 (mean 5.34). The variant G56F S63G G103N gave 5.92, 4.89, nd (mean 5.41). With I58G S63T R101D the result was 6.02, 5.88, 5.32 (mean 5.74).

For S52N S55I S63W, the assay gave 5.94, nd, nd. With G56P S63F G103V the result was nd, 6.13, nd. For D31P S63A, the assay gave nd, nd, nd. The variant I58L S63E Y108P showed nd, nd, nd. With S63W V99P Y108T the result was nd, nd, nd. With H35F S63H R101G the result was nd, nd, nd. With N54Q S63N G103R the result was nd, nd, nd.

The variant G50D N54E S63C showed nd, nd, nd. For D62S S63T Y105D, the assay gave nd, nd, nd. The variant S55N S63C V99I gave nd, nd, nd. The variant G50L S63E showed nd, nd, nd. For F29R S63E G103H, the assay gave nd, nd, nd. With D31Q S63Q G104Y the result was nd, nd, nd.

Extract of 4 entries:

{"changes": "W53P G59N S63M", "log10 Kd (nM) by replicate": "nd, 5.97, 4.71", "mean, log10 nM": "5.34"}
{"changes": "Y60G S63C Y105L", "log10 Kd (nM) by replicate": "4.81, nd, nd", "mean, log10 nM": "4.81"}
{"changes": "W53H S63V G103F", "log10 Kd (nM) by replicate": "4.73, 4.23, 4.09", "mean, log10 nM": "4.35"}
{"changes": "I58L S63E Y108P", "log10 Kd (nM) by replicate": "nd, nd, nd", "mean, log10 nM": "nd"}

Nonspecific signal, from three strains lacking the peptide, appeared in 21% of pairings of library AAYL51, centred on 4.54 (5% of these signals below 3.26); values are not corrected for it.